The assay deals with LDL-induced monocyte chemotactic activity in cultures of human aortic endothelial cells. Kind of assay: HDL-inflammatory index: HDL from treated apoE null mice tested in human aortic endothelial cell cultures. It counts as in vivo. The source says: 11-month-old female apoE null mice were fasted during the day. At night the mice were provided chow containing or not containing additions. In the first experiment the mice were given chow alone (C) or chow supplemented with 8.0 micrograms of Niclosamide (2′,5-Dichloro-4′-nitrosalicylanilide; Niclosamide, Sigma catalog number N-3510 Page 1711 2006-2007 catalog Empirical Formula (Hill Notation): C13H8C12N2O4 Formula Weight: 327.12, CAS Number: 50-65-7 Batch 105K0666 EC 200-056-8) per gram of chow (D) or chow supplemented with 2.0 micrograms of L-4F (free base) per gram of chow (E), or chow supplemented with 8.0 micrograms of Niclosamide together with 2.0 micrograms of L-4F (free base) per gram of chow (F). The mice were only given one gram of chow per mouse (n=8 mice per group) so that they would consume all of the chow. In the morning after the chow was consumed the mice were bled and their plasma was sucrose cryopreserved and fractionated by FPLC and the HDL-containing fractions were tested for their ability to inhibit monocyte chemotactic activity induced by a standard control human LDL (A) in cultures of human aortic endothelial cells. The mouse HDL (C-J) was also compared to a standard human HDL (B) that was added at the same concentrations as the mouse HDL. The resulting monocyte chemotactic activity was normalized to the standard control LDL added alone (A). The results are plotted as the HDL-inflammatory index, which is the result of dividing the monocyte chemotactic activity measured for each condition by the monocyte chemotactic activity obtained by the standard control LDL added alone, which was normalized to 1.0 as described previously (Navab et al. (2004) J Lipid Res, 45: 993-1007).
A second experiment was performed as described for the first experiment with 8 mice in each group except that the additions to the chow were different. […]

As to `O=C(Nc1ccc([N+](=O)[O-])cc1Cl)c1cc(Cl)ccc1O` [Niclosamide, 5-chloro-N-(2-chloro-4-nitrophenyl)-2-hydroxybenzamide, reference compound], the HDL-inflammatory index result is listed as “ineffective” (FIG. 8, female apoE null mice, additions to 1 g chow overnight: L-4F 2 or 10 μg, Niclosamide 8 or 100 μg) and “neither niclosamide alone nor L-4F alone (12KS) significantly improved” (FIG. 37, fractions containing 10 μg L-4F or 10 μg niclosamide in ABCT by stomach tube, six hours). Where the note is “FIG. 24, administered without the peptides”, the “HDL-inflammatory index, salicylanilide without peptides” value is recorded as “neither niclosamide nor the new salicylanilides were anti-inflammatory”.

For the origin of these results see patent US20110183889A1, “SALICYLANILIDE MODIFIED PEPTIDES FOR USE AS ORAL THERAPEUTICS” (The Regents of the University of California, priority 2007, published 2011).
